Laboratory results published in article PMC5101583, “Natural and non-natural amino-acid side-chain substitutions: affinity and diffraction studies of meditope–Fab complexes” (Acta Crystallographica. Section F, Structural Biology …, 2016).
pKd: −log10 of the molar value.

Molecular target: cetuximab IgG
Experiment: SPR; Biacore T100; cetuximab IgG immobilised on a CM5 chip by amine coupling (~5000 RU); peptides as analytes at 30 µl/min in HBS-EP+ (10 mM HEPES pH 7.4, 150 mM NaCl, 3 mM EDTA, 0.05% surfactant P20); the paper estimates a 38% error in Kd

pKd | Substance
< 5.27 | meditope variant F3(3-BrF), GQ(3-Br-F)… (peptide)
2.82 | meditope variant F3(2-BrF), GQ(2-Br-F)… (peptide)
